The results in this text go back to patent US7211600B2, “Methods of modulating c-kit tyrosine protein kinase function with indolinone compounds” (Sugen Inc., priority 1999, dated 2007).

In the experiment the test system is MO7E cells. The experiment is described as follows: cells. The following applies: Homo sapiens, 48 h, read-out: IC50 value for inhibition of proliferation. Here is the method:
MO7E cells, a human myeloid leukemia cell line, were maintained in RPMI-1640 medium supplemented with 10% fetal calf serum and 10 ng/ml each IL-3 and GM-CSF.

As to `Cc1cc(C)c(/C=C2\C(=O)Nc3ccccc32)[nH]1` [Compound Eight], the IC50 lay in the range of 500 to 1000 nM.
